This is an account of results in patent publication US11168102B1, “Bicyclic heteroaryl compounds and uses thereof” (Revolution Medicines, Inc., priority 2019, dated 2021).

Protein sequences, listed by entry. Tags and fused reporters are not part of them. Residues count along the entry.
UniProt Q07889, 564-1049: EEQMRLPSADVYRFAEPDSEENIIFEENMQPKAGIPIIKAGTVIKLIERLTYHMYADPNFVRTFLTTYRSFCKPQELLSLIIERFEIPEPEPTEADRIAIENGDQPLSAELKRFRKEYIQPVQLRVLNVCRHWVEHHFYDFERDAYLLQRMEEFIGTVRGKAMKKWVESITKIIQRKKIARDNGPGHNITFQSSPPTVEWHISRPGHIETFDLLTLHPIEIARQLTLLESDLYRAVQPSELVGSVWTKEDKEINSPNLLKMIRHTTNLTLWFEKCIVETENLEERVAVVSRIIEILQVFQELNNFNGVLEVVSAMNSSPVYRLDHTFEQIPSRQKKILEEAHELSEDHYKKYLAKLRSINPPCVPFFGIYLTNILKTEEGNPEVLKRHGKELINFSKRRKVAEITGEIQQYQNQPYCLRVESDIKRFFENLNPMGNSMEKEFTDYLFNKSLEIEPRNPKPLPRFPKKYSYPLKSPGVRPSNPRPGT

In assay [1] the target is SOS1 catalytic domain (residues 564-1049) (Homo sapiens (Human), UniProt Q07889). Put plainly: Potency assay: binding affinity to SOS1 by Surface Plasmon Resonance (SPR). The note with it: read-out: SOS1 SPR Equilibrium Kd.
In assay [2] the target is SOS1 nucleotide exchange of wild-type KRAS (Homo sapiens (Human), UniProt Q07889). Put plainly: Mode of action assay: inhibition of SOS1 nucleotide exchange activity (TR-FRET). It counts as biochemical.

One may read the Kd as a measure of binding affinity in units of concentration. For orientation: IC50 means the concentration at which inhibition is half-maximal. A lower IC50 goes with inhibition by little substance. `C[C@@H](Nc1ncnc2c1cc(C1(O)CCN(C)CC1)c(=O)n2C)c1cccc(C(F)F)c1F` [Example 28-1]: the Kd in assay [1] was 70.4 nM. Besides, in assay [2], the IC50 was 65.9 nM.
